From article PMC2952073 (Bioorganic & medicinal chemistry, 2010) come the findings set out here.

Data set [1] concerns Gli2-mediated transcription (mGli2). Briefly: Gli-Luc reporter assay in C3H10T1/2 cells transfected with Gli2. It counts as cell-based. The following applies: Mus musculus, C3H 10T1/2, read-out: IC50, Gli2-mediated transcription. In general terms: In a reporter assay the amount or activity of a reporter protein is the signal.
The nature of data set [2]: Parallel artificial membrane permeability assay. It counts as in vitro ADME. The following applies: PAMPA, pH7.4. In general terms: In PAMPA a lipid-coated filter parts donor from acceptor wells.

What is called IC50 is the concentration needed to halve the response being measured. For the compound `CCCN(C(=O)C(C)c1cccc(C(=O)c2ccccc2)c1)c1ccc2cc[nH]c2c1` (stereo not drawn) [compound 33, 2-(3-Benzoylphenyl)-N-(1H-indol-6-yl)-N-propylpropanamide], the IC50 in data set [1] was 29 µM.
Same read-out and setting: the result for `CCCN(C(=O)C(C)c1cccc(C(=O)c2ccccc2)c1)c1ccc2[nH]ccc2c1` (stereo not drawn) [compound 42, 2-(3-Benzoylphenyl)-N-(1H-indol-5-yl)-N-propylpropanamide] reads 21 µM.
On to `CNC(=C[N+](=O)[O-])NCCSCc1ccc(CN(C)C)o1` [ranitidine], for which, in data set [2], the “average P” value was determined as 55 nm/s.
